Experimental data: patent US6291194A, “Assay for determination of androgenic or anti-androgenic activity of a serum sample or a test compound” (priority 2000, dated 2001)

Test: Serum androgen bioactivity in prepubertal boys with cryptorchidism during hCG treatment
Format: in vivo, human
Details: 9 prepubertal boys with cryptorchidism; below detection limit before treatment

In the case of “hCG: human chorionic gonadotropin, given i.m. to boys with cryptorchidism”, the “serum androgen bioactivity level during treatment” value is reported as “above the assay sensitivity”.
